Our source for the Kd values is patent US20250326791A1.

One test concerns the target µ opioid receptor (MOR). Kind of test: protein binding radioassay.
The next test addresses δ opioid receptor (DOR). Kind of test: protein binding radioassay.

For “D-Ala-D-Leu enkephalin (DADLE) (peptide)”, the Kd with µ opioid receptor (MOR) was 9 nM; with δ opioid receptor (DOR), 8 nM.

In general, Kd refers to a measure of binding affinity in units of concentration. A lower Kd goes with a tighter complex.
